# Tested on: MCF7 RUNX2 Tet.OFF cells
# Test: Suspension culture tumorsphere formation
# Format: cell-based, human
# Conditions: 10 μg/mL Herceptin, 10 days
# Description: MCF7 Tet.OFF cells were grown in the presence (+Dox, RUNX2 negative) or absence (−Dox, RUNX2 positive) of doxycycline for 3 days. Cells were then scraped and counted. 60,000 cells were plated in each well of a 6-well ultra-low attachment plate (Corning; 3471) in Promocell Basal Medium (Promocell; c-22211) complete with Supplement Mix (Promocell; c-39216). Cells were then treated with or without 2 ng/mL TGFβ (R&D Systems; 240-B-002). After growth for 10-15 days, wells were photographed and tumorsphere diameters were measured from photographic images (mm). Colony diameters were calculated using the formula: (L+W)/2. Representative photographs were obtained at 4× magnification. […] For TAZ siRNA knockdown experiments, TAZ siRNA was transfected (as below) into MCF7 Tet.OFF cells and 24 hr later cells were scraped and placed into suspension as described above. Small-Interfering RNA (siRNA) pool targeting RUNX1, RUNX2, and non-targeting control were purchased from Dharmacon, and transfected into cells using RNAiMAX Reagent (Invitrogen). Western blot analysis was performed 48 hrs after transfection.
substance,measurement,setting,value
Herceptin: monoclonal antibody that binds the extracellular domain of HER2,tumorsphere size,RUNX2 negative cells,7.2±3.27 mm
same,tumorsphere size,"RUNX2 positive cells, TGFβ",5.76±2.83 mm

# From patent US11634381B2, “RUNX2 transcription factor inhibitors and uses thereof” (University of Maryland, Baltimore, priority 2015, dated 2023)
